Source: US6509161B1, “Green fluorescent protein” (Gentronix Limited, priority 2000, dated 2003)

Tests used:
[1] = system: YJL047c; conditions: 0.005% v/v MMS; GM YJL047c; exposed versus unexposed culture brightness
[2] = system: FF18984; conditions: 0.005% v/v MMS; GM FF18984; exposed versus unexposed culture brightness
[3] = system: FY73; conditions: 0.005% v/v MMS; GM FY73; exposed versus unexposed culture brightness

COS(C)(=O)=O [MMS, methyl methanesulfonate]
induction ratio, as measured by fluorescence polarisation [1]: 2.39 | induction ratio, as measured by fluorescence polarisation [2]: 5.40 | induction ratio, as measured by fluorescence polarisation [3]: 1.94
